Laboratory results: patent publication US20070099199A1

Sequences of proteins named here, by UniProt entry; tags and fusion partners are left off. Residues count along the entry.
UniProt P03126, 139-158 limits assumed: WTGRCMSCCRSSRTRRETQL

Target: HPV16 E6 C-terminal PDZ ligand (PL) peptide, biotinylated (human papillomavirus type 16) (UniProt P03126)
Experiment: G assay ELISA; immobilised GST-PDZ, biotin-peptide 10 uM

GST-PIST PDZ domain 1 was tested, and the Ave OD was 0.386 A450 nm and the OD S/N (ratio vs GST only) was 1.96.
